# Test results reported in US20140113958A1, “HCV Combination Therapy” (priority 2011, published 2014).
# Test system: Huh-luc/neo-ET cells
# Test: Cellular toxicity by XTT dye reduction in Huh-luc/neo-ET cells
# Settings: second drug in combination with miravirsen (SPC3649); 95% confidence interval; median or individual values
structure (smiles),measurement,value
"NC(=O)c1ncn([C@@H]2O[C@H](CO)[C@@H](O)[C@H]2O)n1 [Ribavirin, 1-[(2R,3R,4S,5R)-3,4-dihydroxy-5-(hydroxymethyl)oxolan-2-yl]-1H-1,2,4-triazole-3-carboxamide]","Cytotoxicity, Antagonism vol",0/0 μM^2%
same,"Cytotoxicity, Synergy vol",0/0 μM^2%
